The subject of data set [1] is Huh-5-2 cells. Put plainly: Proliferation of exponentially growing Huh-5-2 cells (MTS method). The conditions noted are these: concentration required to inhibit the proliferation of exponentially growing Huh-5-2 cells by 50%; Table 2. (In general: Formazan colour is commonly taken as a measure of viable cells.)
Assay in data set [2]: as above
The conditions noted are these: human, CC50, concentration required to inhibit the proliferation of exponentially growing Huh-5-2 cells by 50%.

Values after ≈ are worked out from the molar mass of the structure shown. A value given as a limit tells only on which side of the number the result lay.

By CC50 is commonly meant the concentration giving 50% cytotoxicity. Higher therefore signals better tolerance by the cells.

With `COCCN1C(=O)c2ccccc2C(C(=O)Nc2cccc(OC)c2)C1C` (stereo not drawn) [C69, 2-(2-methoxyethyl)-N-(3-methoxyphenyl)-3-methyl-1-oxo-1,2,3,4-tetrahydroisoquinoline-4-carboxamide], the CC50 in data set [1] came to 125 µg/mL (≈ 339 µM).

`COCCN1C(=O)c2cc(OC)c(OC)cc2C(C(=O)Nc2cccc(OC)c2)C1c1cccs1` (stereo not drawn) [C75, 6,7-dimethoxy-2-(2-methoxyethyl)-N-(3-methoxyphenyl)-1-oxo-3-(thiophen-2-yl)-1,2,3,4-tetrahydroisoquinoline-4-carboxamide] returned a CC50 in data set [1] of 125 µg/mL (≈ 252 µM).

Take `COCCN1C(=O)c2ccc(F)cc2C(C(=O)Nc2cccc(OC)c2)C1c1cccs1` (stereo not drawn) [C77, 6-fluoro-2-(2-methoxyethyl)-N-(3-methoxyphenyl)-1-oxo-3-(thiophen-2-yl)-1,2,3,4-tetrahydroisoquinoline-4-carboxamide]: the CC50 in data set [1] is 125 µg/mL (≈ 275 µM).

Regarding `COCCN1C(=O)c2ccccc2C(C(=O)Nc2ccc3scnc3c2)C1c1cccs1` (stereo not drawn) [C164, N-(benzo[d]thiazol-5-yl)-2-(2-methoxyethyl)-1-oxo-3-(thiophen-2-yl)-1,2,3,4-tetrahydroisoquinoline-4-carboxamide], the cytotoxic concentration (CC50) in data set [1] worked out at 20.51 µg/mL (≈ 44.2 µM).

`COc1cccc(NC(=O)C2c3ccccc3C(=O)N(Cc3ccco3)C2c2cccs2)c1` (stereo not drawn) [C4, 2-(Furan-2-ylmethyl)-N-(3-methoxyphenyl)-1-oxo-3-(thiophen-2-yl)-1,2,3,4-tetrahydroisoquinoline-4-carboxamide] showed a CC50 in data set [1] of 125 µg/mL (≈ 273 µM).

In data set [2] (Table 2), `COCCN1C(=O)c2ccccc2C(C(=O)Nc2ccc3c(c2)S(=O)(=O)C=C3)C1c1cccs1` (stereo not drawn) [C198, N-(1,1-dioxobenzo[b]thiophen-6-yl)-2-(2-methoxyethyl)-1-oxo-3-(thiophen-2-yl)-1,2,3,4-tetrahydroisoquinoline-4-carboxamide] yielded a CC50 at 72 h of 2.33 µg/mL (≈ 4.71 µM).

As for `COCCN1C(=O)c2ccccc2C(C(=O)Nc2ccc(OC)c(OC)c2)C1c1cccs1` (stereo not drawn) [C48, N-(3,4-dimethoxyphenyl)-2-(2-methoxyethyl)-1-oxo-3-(thiophen-2-yl)-1,2,3,4-tetrahydroisoquinoline-4-carboxamide], the CC50 at 72 h in data set [2] (Table 2) was 102 µg/mL (≈ 219 µM); in data set [2] (Table 4), greater than 50 µg/mL.

In turn, `COCCN1C(=O)c2ccccc2C(C(=O)Nc2ccc3[nH]ncc3c2)C1c1cccs1` (stereo not drawn) [C132, N-(1H-indazol-5-yl)-2-(2-methoxyethyl)-1-oxo-3-(thiophen-2-yl)-1,2,3,4-tetrahydroisoquinoline-4-carboxamide] had a CC50 at 72 h in data set [2] (Table 2) of 81.3 µg/mL (≈ 182 µM).

`COCCN1C(=O)c2ccc(Cl)cc2C(C(=O)Nc2cccc(OC)c2)C1c1cccs1` (stereo not drawn) [C55, 6-chloro-2-(2-methoxyethyl)-N-(3-methoxyphenyl)-1-oxo-3-(thiophen-2-yl)-1,2,3,4-tetrahydroisoquinoline-4-carboxamide] gave a half-maximal cytotoxic concentration (CC50) at 72 h in data set [2] (Table 2) of 88 µg/mL (≈ 187 µM).

Turning to `COCCN1C(=O)c2ccccc2C(C(=O)Nc2onc(C)c2C)C1c1cccs1` (stereo not drawn) [C220, N-(3,4-dimethylisoxazol-5-yl)-2-(2-methoxyethyl)-1-oxo-3-(thiophen-2-yl)-1,2,3,4-tetrahydroisoquinoline-4-carboxamide], in data set [2] (Table 2), the half-maximal cytotoxic concentration (CC50) at 72 h came out at 81.9 µg/mL (≈ 193 µM).

`COCCN1C(=O)c2ccccc2C(C(=O)O)C1c1cccs1` (stereo not drawn) [C36, 2-(2-methoxyethyl)-1-oxo-3-(thiophen-2-yl)-1,2,3,4-tetrahydroisoquinoline-4-carboxylic acid] returned a CC50 at 72 h in data set [2] (Table 2) of 82.7 µg/mL (≈ 250 µM).

In turn, `COCCN1C(=O)c2ccccc2C(C(=O)Nc2cc(-c3ccccc3)[nH]n2)C1c1cccs1` (stereo not drawn) [C182, 2-(2-methoxyethyl)-1-oxo-N-(5-phenyl-1H-pyrazol-3-yl)-3-(thiophen-2-yl)-1,2,3,4-tetrahydroisoquinoline-4-carboxamide] registered a half-maximal cytotoxic concentration (CC50) at 72 h in data set [2] (Table 2) of 36.2 µg/mL (≈ 76.6 µM). This CC50 at 72 h is about 2.3-fold lower than that of the compound before.

For the compound `COCCN1C(=O)c2ccccc2C(C(=O)Nc2ccccc2-c2ccccc2)C1c1cccs1` (stereo not drawn) [C84, N-(biphenyl-2-yl)-2-(2-methoxyethyl)-1-oxo-3-(thiophen-2-yl)-1,2,3,4-tetrahydroisoquinoline-4-carboxamide], the CC50 at 72 h in data set [2] (Table 2) amounted to 50 µg/mL (≈ 104 µM).

Consider `COCCN1C(=O)c2c(ccc(OC)c2F)C(C(=O)Nc2cccc(OC)c2)C1c1cccs1` (stereo not drawn) [C128, 8-fluoro-7-methoxy-2-(2-methoxyethyl)-N-(3-methoxyphenyl)-1-oxo-3-(thiophen-2-yl)-1,2,3,4-tetrahydroisoquinoline-4-carboxamide], for which the 50% cytotoxic concentration (CC50) at 72 h is 52.7 µg/mL (≈ 109 µM) in data set [2] (Table 2) and greater than 50 µg/mL in data set [2] (Table 4).

On to `COCCN1C(=O)c2ccccc2C(C(=O)Nc2ccc(-n3cccc3)c(C#N)c2)C1c1cccs1` (stereo not drawn) [C222, N-(3-cyano-4-(1H-pyrrol-1-yl)phenyl)-2-(2-methoxyethyl)-1-oxo-3-(thiophen-2-yl)-1,2,3,4-tetrahydroisoquinoline-4-carboxamide], for which, in data set [2] (Table 2), the CC50 at 72 h came out at 16.2 µg/mL (≈ 32.6 µM).

In data set [2] (Table 2), `COc1cccc(NC(=O)C2c3ccccc3C(=O)N(CCSC)C2c2cccs2)c1` (stereo not drawn) [C63, N-(3-methoxyphenyl)-2-(2-(methylthio)ethyl)-1-oxo-3-(thiophen-2-yl)-1,2,3,4-tetrahydroisoquinoline-4-carboxamide] displayed a half-maximal cytotoxic concentration (CC50) at 72 h of 81.6 µg/mL (≈ 180 µM).

The values are drawn from US20110224208A1, “NOVEL INHIBITORS OF FLAVIVIRUS REPLICATION” (KATHOLIEKE UNIVERSITEIT LEUVEN, K.U. LEUVEN R&D, priority 2008, published 2011).
